Assay results published in paper PMC11601504 (bioRxiv, 2024).

Molecular target: the molecule itself
Test: negative-stain electron microscopy

B1: Mouse Thorase (residues 41–361), wild type (enzyme)
chain: IDPTRKQKVEAQKQAEKLMKQIGVKNVKLSEYEMSIAAHLVDPLNMHVTWSDIAGLDDVITDLKDTVILPIKKKHLFENSRLLQPPKGVLLYGPPGCGKTLIAKATAKEAGCRFINLQPSTLTDKWYGESQKLAAAVFSLAIKLQPSIIFIDEIDSFLRNRSSSDHEATAMMKAQFMSLWDGLDTDHSCQVIVMGATNRPQDLDSAIMRRMPTRFHINQPALKQREAILKLILKNENVDRHVDLLEVAQETDGFSGSDLKEMCRDAALLCVREYVNSTSEESHDEDEIRPVQQQDLHRAIEKMKKSKDAAFQNVLTHVCLD
Question: Does B1 bind?
Answer: Result: binds
